From publication PMC5526615, “Phenotypic, chemical and functional characterization of cyclic nucleotide phosphodiesterase 4 (PDE4) as a potential anthelmintic drug target” (PLoS Neglected Tropical Diseases, 2017) come the findings set out here.

The term Km denotes the substrate concentration at which the rate is half of its maximum. For orientation: Vmax means the rate approached at saturating substrate.

For this data set, the system named is Nc1ncnc2c1ncn2[C@@H]1O[C@@H]2COP(=O)(O)O[C@H]2[C@H]1O. Put plainly: purified protein, by the assay type. The note with it: other: cAMP substrate up to 10 μM, 23.5 units/ml SmPDE4A.

For the substance SmPDE4A (Schistosoma mansoni), the Km was determined as 3.0 µM and the Vmax stood at 32.6 pmol/min.
